Experimental findings from US5726159A, “Antithrombotic agents” (Eli Lilly and Company, priority 1995, dated 1998) are described below.

The data set can be described thus: Index of bioavailability (% relative activity from plasma TT, oral vs i.v.). The data set is classed as in vivo. The note with it: dose-adjusted AUC of plasma TT, p.o. vs i.v.

For “1-Piq-Pro-p-NHCH2 C6 H4 C(NH)NH2.2HCl [Example 18]”, the “% oral/i.v. activity (Rat)” value is 12%.
For “D-hPro-Pro-p-NHCH2 C6 H4 C(NH)NH2.HCl [Example 17]” the value was 15%; for “EtSO2 -D-Phe-Pro-p-NHCH2 -C6 H4 C(=NH)NH2.HCl [Example 23]”, 12%.
